# Data: PubChem BioAssay AID463165 (Johns Hopkins Ion Channel Center, 2010)
# By UniProt entry, the sequences of proteins in these tests, tags left out.
# UniProt P49798, whole entry: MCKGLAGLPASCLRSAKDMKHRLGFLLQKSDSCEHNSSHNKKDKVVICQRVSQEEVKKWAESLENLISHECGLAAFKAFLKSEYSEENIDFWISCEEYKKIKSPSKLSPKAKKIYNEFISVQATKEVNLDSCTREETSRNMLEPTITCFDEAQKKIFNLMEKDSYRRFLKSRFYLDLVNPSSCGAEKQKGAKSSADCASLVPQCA
# The entries are a selection whose mix differs from that of the whole data set. Some tests of the compounds listed are not included; inactive here does not mean inactive elsewhere. Active and inactive are the calls of the source.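 The calls were made as follows: active = B-score, a plate-corrected calcium signal, over three deviations above library mean, with baseline fluorescence within five deviations of library mean; inactive = the rest.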
# Molecular target: Regulator of G-protein signaling 4 (Homo sapiens) (UniProt P49798)
# Assay: RGS4 inhibitors, primary screen, cell-based, HEK293 M3R inducible RGS4, calcium flux (AID 463165);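 also: RGS4 expression induced by doxycycline in cells with stable M3 receptor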
# Details: Fluo-4 calcium flux, at 10 µM, triggered by carbachol at its EC20
row,Structure (SMILES),outcome
1,CC(C)Oc1ccc(C(=O)NCC2(N(C)C)CCCCC2)cc1,inactive
2,CN(C)c1cccc(C(=O)NCC2(N(C)C)CCCCC2)c1,inactive
3,COc1ccc(Br)c(C(=O)NCC2(N3CCCCC3)CCCCC2)c1,inactive
4,O=C(OC1CN2CCC1CC2)C(CO)(c1ccccc1)c1ccccc1 (centres undefined),inactive
5,O=C(NCC1(N2CCCCC2)CCCCC1)c1cccc(Cl)c1,inactive
6,COc1cccc(C(=O)NCC2(N3CCCCC3)CCCCC2)c1,inactive
7,COc1ccc(Cl)cc1C(=O)NCC1(N(C)C)CCCCC1,inactive
8,COc1cc(C(=O)NCC2(N(C)C)CCCCC2)c([N+](=O)[O-])cc1OC,inactive
9,CN(C)C1(CNC(=O)c2ccc(Br)cc2)CCCCC1,inactive
10,COc1ccc(C(=O)NCC2(N(C)C)CCCCC2)cc1,inactive
11,CCN1CCCC(OC(=O)C2(O)c3ccccc3C=Cc3ccccc32)C1 (centres undefined),inactive
12,Cc1cc(C(=O)NCC2(N3CCCCC3)CCCCC2)ccc1[N+](=O)[O-],inactive
13,O=C(NCC1(N2CCCCC2)CCCCC1)c1cccc(Br)c1,inactive
14,C=CCN1CCN(CCOC(=O)C(O)(c2ccccc2)c2ccccc2)CC1,inactive
15,O=C(NCC1(N2CCCCC2)CCCCC1)c1cc(F)c(F)cc1Cl,inactive
16,Cc1ccccc1C(=O)NCC1(N2CCCCC2)CCCCC1,inactive
17,CN(C)c1ccc(C(=O)NCC2(N(C)C)CCCCC2)cc1,inactive
18,CN(C)C1CCCC1OC(=O)C(O)(c1ccccc1)c1ccccc1 (centres undefined),inactive
19,Cc1ccc(C(=O)NCC2(N3CCCCC3)CCCCC2)cc1,inactive
20,CCN(CC)CC(C)C(C)OC(=O)C(O)(c1ccccc1)c1ccccc1 (centres undefined),inactive
21,COc1cc(SC)ccc1C(=O)NCC1(N(C)C)CCCCC1,inactive
22,CC(C)N1C(=O)CC2(CCN(CCOC(=O)C(O)(c3ccccc3)c3ccccc3)CC2)C1=O,inactive
23,CN1[C@@H]2CC[C@H]1CC(OC(=O)C(O)(c1ccccc1)c1ccccc1)C2 (some centres undefined),inactive
24,O=C(NCC1(N2CCCCC2)CCCCC1)c1cc([N+](=O)[O-])ccc1Cl,inactive
